Test results as given in BindingDB's records for doi:10.1016/j.bmcl.2004.12.068 (Pharmacor, 2005).

Target: T1, Dimer of Gag-Pol polyprotein [501-599] (Human immunodeficiency virus 1, UniProt P03367)
T1 construct: 501-599
Experiment: Protease Inhibition Assay
Details: pH 4.7; 30 °C

Compound | Ki [µM]
CC(C)(C)OC(=O)NCCCC[C@H](NC(=O)OCC1c2ccccc2-c2ccccc21)C(=O)O [(2S)-6-{[(tert-butoxy)carbonyl]amino}-2-{[(9H-fluoren-9-ylmethoxy)carbonyl]amino}hexanoic acid] | 28
Cc1ccc(S(=O)(=O)N(CC(C)C)[C@H](CCCCNC(=O)OCC2c3ccccc3-c3ccccc32)C(=O)O)cc1 [(2R)-6-{[(9H-fluoren-9-ylmethoxy)carbonyl]amino}-2-[(4-methylbenzene)(2-methylpropyl)sulfonamido]hexanoic acid] | 0.33
